Test results reported in PubChem BioAssay AID1645883 (National Center for Advancing Translational Sciences (NCATS), 2021).
The entries are a selection whose mix differs from that of the whole data set. Some results for these compounds are left out of this collection, so the calls shown say nothing about other tests. Records with an inconclusive call do not appear. Calls of active or inactive are those of the source. Calls follow the shape of the dose curve; as a rule, active = well fitted activation curve with a large enough effect; inconclusive = small, poorly fitted or top-dose-only effect; inactive = no such curve, though single readings can be large or run the other way.

Amino acid sequences for entries named in this document (tags omitted).
UniProt O95398, whole entry: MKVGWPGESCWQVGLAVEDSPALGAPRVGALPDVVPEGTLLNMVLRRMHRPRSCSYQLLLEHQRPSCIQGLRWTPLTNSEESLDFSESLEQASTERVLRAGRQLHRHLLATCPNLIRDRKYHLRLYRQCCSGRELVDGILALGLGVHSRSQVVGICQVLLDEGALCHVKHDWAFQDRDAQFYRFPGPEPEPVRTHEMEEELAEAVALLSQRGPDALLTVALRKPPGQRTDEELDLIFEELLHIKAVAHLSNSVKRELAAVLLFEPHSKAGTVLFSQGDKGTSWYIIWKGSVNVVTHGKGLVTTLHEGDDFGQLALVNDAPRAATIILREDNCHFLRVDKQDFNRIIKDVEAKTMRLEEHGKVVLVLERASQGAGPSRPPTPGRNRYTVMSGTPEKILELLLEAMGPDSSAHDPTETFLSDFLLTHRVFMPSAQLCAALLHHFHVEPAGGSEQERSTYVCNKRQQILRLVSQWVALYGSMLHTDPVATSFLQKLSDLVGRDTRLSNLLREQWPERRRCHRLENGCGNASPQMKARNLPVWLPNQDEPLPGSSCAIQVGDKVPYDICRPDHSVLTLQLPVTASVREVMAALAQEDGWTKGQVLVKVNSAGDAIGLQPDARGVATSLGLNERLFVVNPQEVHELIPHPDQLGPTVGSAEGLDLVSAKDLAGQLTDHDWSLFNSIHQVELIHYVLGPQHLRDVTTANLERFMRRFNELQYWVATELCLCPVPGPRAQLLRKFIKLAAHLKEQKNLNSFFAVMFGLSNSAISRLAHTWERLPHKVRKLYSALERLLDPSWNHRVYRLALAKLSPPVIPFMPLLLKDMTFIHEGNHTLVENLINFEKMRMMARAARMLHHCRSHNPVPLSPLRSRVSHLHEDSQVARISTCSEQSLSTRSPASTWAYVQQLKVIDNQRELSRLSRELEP

target: Rap guanine nucleotide exchange factor 3 (Homo sapiens) (UniProt O95398); experiment: Validation qHTS for agonist of cAMP-regulated guanine nucleotide exchange factor 3 (EPAC1); conditions: EPAC1 Rap1b BODIPY-GDP exchange, fluorescence; stronger effect = higher value; percent of cAMP control response; also: nearly all actives have a fitted effect of over 70% in size
Excerpt: Assay Provider (PI): Xiaodong Cheng Ph.D.
The University of Texas Medical Branch, […], TX
In multi-cellular eukaryotic organisms, the effects of cAMP are transduced by two ubiquitously-expressed intracellular cAMP receptors, the classic protein kinase A/cAMP-dependent protein kinase (PKA/cAPK) and the more recently discovered exchange protein directly activated by cAMP/cAMP-regulated guanine nucleotide exchange factor (EPAC/cAMP-GEF). Both PKA and EPAC are ubiquitously expressed in all tissues, and an increase in intracellular cAMP levels will lead to the activation of both PKA and EPAC. […]
This qHTS will be used to screen the Molecular Libraries Small Molecule Repository (MLSMR) as a concentration-titration series using the NCGC unique quantitative screening (qHTS) platform to find activators for EPAC1. […] Activators are identified by monitoring the change in fluorescence signal as the exchanged free BODIPY-GDP has a reduced fluorescence compared to Rap1-bound BODIPY-GDP. […]
Briefly, three uL of reagents (100 nM EPAC1, 250 nM RAP1B-BODIPY-GDP, 50 uM GDP) were dispensed into a 1536-well Greiner black solid-bottom medium binding assay plate. […] The assay plates were read at 5 minute intervals for 30 minutes in the ViewLux plate reader using 480nm excitation and 540nm emission filters. […]
% is scaled to controls: 0 for no effect and ±100 for the full control effect.

Structure (SMILES) | max response
CN1CCCC(OC(=O)C(O)(c2ccccc2)c2ccccc2)C1 (stereo unspecified) | inactive: -28.7%
